We go through one molecule from paper PMC12084609, “Structural insights into small-molecule agonist recognition and activation of complement receptor C3aR” (The EMBO Journal, 2025).

For the test, the target named is T1, Full-length human C3aR (residues 1–482) (human, UniProt Q16581 1-482).
T1 construct: C3a anaphylatoxin chemotactic receptor (C3aR), human, residues 1–482; also called C3a receptor; wild-type C3aR; source: Sf9 insect cells (baculovirus), purified (Ni-NTA, anti-FLAG M1 resin) in LMNG/CHS; not shown: eGFP, C-terminal, cleaved; His6, C-terminal, cleaved
T1 sequence (looked up): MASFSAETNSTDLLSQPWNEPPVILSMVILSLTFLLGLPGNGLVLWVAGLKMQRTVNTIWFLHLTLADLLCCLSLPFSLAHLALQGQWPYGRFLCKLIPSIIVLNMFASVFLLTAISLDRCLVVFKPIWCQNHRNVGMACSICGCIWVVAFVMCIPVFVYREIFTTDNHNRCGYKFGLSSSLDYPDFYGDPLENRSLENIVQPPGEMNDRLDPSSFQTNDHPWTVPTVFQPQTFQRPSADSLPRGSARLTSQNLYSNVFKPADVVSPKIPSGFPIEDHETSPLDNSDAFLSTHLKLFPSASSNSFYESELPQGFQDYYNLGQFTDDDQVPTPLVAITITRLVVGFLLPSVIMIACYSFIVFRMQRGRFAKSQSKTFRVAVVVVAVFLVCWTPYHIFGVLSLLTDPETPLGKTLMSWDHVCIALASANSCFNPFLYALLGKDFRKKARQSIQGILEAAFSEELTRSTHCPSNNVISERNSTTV
In words: cryo-EM structure; JR14a–C3aR–Gi–scFv16 complex: purified C3aR, Gi heterotrimer and scFv16 mixed 1:1.2:1.5 with 10 μM JR14a, overnight at 4 °C; anti-GFP nanobody column, on-column HRV 3C cleavage, SEC in 20 mM HEPES pH 8.0, 150 mM NaCl, 0.002% LMNG, 0.0002% CHS, 10 μM JR14a. Conditions: both partners purified.

B1: human Gαi1 (natural protein)
chain: MGCTLSAEDKAAVERSKMIDRNLREDGEKAAREVKLLLLGAGESGKSTIVKQMKIIHEAGYSEEECKQYKAVVYSNTIQSIIAIIRAMGRLKIDFGDSARADDARQLFVLAGAAEEGFMTAELAGVIKRLWKDSGVQACFNRSREYQLNDSAAYYLNDLDRIAQPNYIPTQQDVLRTRVKTTGIVETHFTFKDLHFKMFDVGGQRSERKKWIHCFEGVTAIIFCVALSDYDLVLAEDEEMNRMHESMKLFDSICNNKWFTDTSIILFLNKKDLFEEKIKKSPLTICYPEYAGSNTYEEAAAYIQCQFEDLNKRKDTKEIYTHFTCATDTKNVQFVFDAVTDVIIKNNLKDCGLF
notes: also called Gi1; source: Trichoplusia ni (Hi5) insect cells, co-expressed with His6-Gβ1 and Gγ2, purified as the heterotrimer (Ni-NTA, HiTrap Q)
On to B1, for which the binding result was “binds”.
